For the test, the target named is T1, soluble recombinant human IL-1RI (corresponding to the extracellular domain of IL-1RI) (human, UniProt P14778 18-336).
T1 construct: extracellular domain
T1 sequence (looked up): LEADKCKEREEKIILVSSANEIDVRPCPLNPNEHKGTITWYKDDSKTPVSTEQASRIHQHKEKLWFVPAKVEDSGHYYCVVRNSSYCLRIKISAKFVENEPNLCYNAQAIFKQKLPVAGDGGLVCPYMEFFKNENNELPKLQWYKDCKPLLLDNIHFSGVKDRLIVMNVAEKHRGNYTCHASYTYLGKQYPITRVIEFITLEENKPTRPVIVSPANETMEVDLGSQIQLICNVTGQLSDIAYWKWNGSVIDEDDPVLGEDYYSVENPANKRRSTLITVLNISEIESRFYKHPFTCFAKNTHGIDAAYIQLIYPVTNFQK
Nature of the test: SPR (Reichert SR7000DC), soluble recombinant human IL-1RI, PBS with 0.005% Tween 20. As to the method:
The binding properties of proteins for soluble recombinant human IL-1RI (corresponding to the extracellular domain of IL-1RI) were evaluated using surface plasmon resonance with a Reichert SR7000DC Dual Channel SPR system. Binding was evaluated in phosphate buffered saline with 0.005% Tween 20. […] Thus, the P01 protein bound to IL-1RI with a greater affinity than did IL-1β under similar conditions.

B1: IL-1Ra (ligand, UniProt P18510 26-177, looked up)
chain: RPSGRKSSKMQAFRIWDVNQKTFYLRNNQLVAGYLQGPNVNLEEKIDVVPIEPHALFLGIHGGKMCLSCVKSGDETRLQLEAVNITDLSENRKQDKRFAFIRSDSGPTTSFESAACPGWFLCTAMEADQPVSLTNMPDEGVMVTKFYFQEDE
Broadly, the Kd is a measure of binding affinity in units of concentration. A word on the koff: it is a measure of how fast the partners let go of each other. As a reminder, the kon is the rate constant with which the complex forms. As for B1, the Kd came to 0.326 nM, the koff turned out to be 6.58e-05 s⁻¹ and the kon was found to be 201000 M⁻¹ s⁻¹.

(Values after patent US20140308239A1 (ELEVEN BIOTHERAPEUTICS, published 2014).)
